Here are results for three compounds from ChEMBL document CHEMBL1649421, “New drug-like hydroxyphenylnaphthol steroidomimetics as potent and selective 17β-hydroxysteroid dehydrogenase type 1 inhibitors for the treatment of estrogen-dependent diseases” (J Med Chem, 2011).

pIC50: −log10 of the molar value.

Test [1] deals with T1, 17-beta-hydroxysteroid dehydrogenase type 1 (Homo sapiens, UniProt P14061).
T1 sequence (P14061 whole entry): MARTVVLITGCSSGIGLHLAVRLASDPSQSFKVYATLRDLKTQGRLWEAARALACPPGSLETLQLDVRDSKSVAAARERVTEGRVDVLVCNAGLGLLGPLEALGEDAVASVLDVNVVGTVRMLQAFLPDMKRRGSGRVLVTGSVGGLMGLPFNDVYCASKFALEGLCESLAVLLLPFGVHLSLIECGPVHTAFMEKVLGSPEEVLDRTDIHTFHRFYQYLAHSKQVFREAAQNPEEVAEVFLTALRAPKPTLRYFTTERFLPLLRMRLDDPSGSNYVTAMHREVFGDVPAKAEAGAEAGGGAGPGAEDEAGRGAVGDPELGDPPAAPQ
As to the kind of experiment: Displacement of [3H]E1 from human placental 17beta-HSD1 after 10 mins by fluid scintillation counting. (Loss of bound radioactivity is the signal in a displacement assay; it reports binding, not function.)

The species named for test [2] is Homo sapiens. Description: Selectivity ratio of IC50 for human placental 17beta-HSD2 to IC50 for human placental 17beta-HSD1.
The target in test [3] is T1, 17-beta-hydroxysteroid dehydrogenase type 1. Description: Displacement of [3H]E1 from 17beta-HSD1 in human T47D cells after 10 mins by fluid scintillation counting. The class given is cell-based.
For test [4], the target named is T2, 17-beta-hydroxysteroid dehydrogenase type 2 (Homo sapiens, UniProt P37059).
T2 sequence (P37059 whole entry): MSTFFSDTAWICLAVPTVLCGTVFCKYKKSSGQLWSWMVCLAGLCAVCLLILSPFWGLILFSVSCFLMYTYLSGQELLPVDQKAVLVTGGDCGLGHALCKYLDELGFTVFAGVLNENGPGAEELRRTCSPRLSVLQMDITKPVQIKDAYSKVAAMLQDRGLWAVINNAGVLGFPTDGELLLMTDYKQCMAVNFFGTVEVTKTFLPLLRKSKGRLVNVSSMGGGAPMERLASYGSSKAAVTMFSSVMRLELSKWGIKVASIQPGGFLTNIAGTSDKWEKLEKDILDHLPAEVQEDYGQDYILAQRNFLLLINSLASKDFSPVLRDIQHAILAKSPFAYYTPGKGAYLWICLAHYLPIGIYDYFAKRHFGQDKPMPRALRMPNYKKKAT
As to the kind of experiment: Displacement of [3H]E2 from human placental 17beta-HSD2 after 10 mins by fluid scintillation counting.

By pIC50 is commonly meant the negative decadic logarithm of the IC50, by convention in mol/L. High values mean a small IC50, low ones a large IC50.

Turning to `COc1ccc(-c2c(O)ccc3cc(-c4cccc(O)c4)ccc23)cn1`, the pIC50 is 7.48 in test [1] and 6.17 in test [3]. In addition, in test [2], the Ratio IC50 came out at 16.

Consider `Nc1cccc(-c2c(O)ccc3cc(-c4cccc(O)c4)ccc23)c1`, for which, in test [2], the Ratio IC50 was 33.

`Oc1cccc(-c2ccc3c(-c4ccncc4)c(O)ccc3c2)c1` gave a pIC50 in test [4] of 5.48. Also, the Ratio IC50 in test [2] is 52.
